Results reported in PubChem BioAssay AID483 (Columbia University Molecular Screening Center, 2006).
The entries are a selection whose mix differs from that of the whole data set. Some results for these compounds are left out of this collection, so the calls shown say nothing about other tests. Calls of active or inactive are those of the source.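 The calls were made as follows: active = visual image review flags a hit and inhibition of aggregation exceeds 20%; inconclusive = visual hit but inhibition at or below 20%; inactive = no hit on visual image review.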

Test: reduction of polyQ htt aggregates in cells – imaging, exon1htt(103Q)mCFP cells, high-content imaging, primary screen (AID 483);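 also: compound exposure lasted 3 days before fixation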
Details: exon1htt(103Q)mCFP cell line, aggregate imaging; at 2 µM; stronger effect = higher value
In the case of O=C(OC1CN2CCC1CC2)C(CO)(c1ccccc1)c1ccccc1 (stereo unspecified), the inhibition of aggregation is reported as inactive: -7.7%.
